Counter-ions that a name gives are not always drawn. Where only a bound is given, the exact number is not on record here.

Amino acid sequences for entries named in this document (tags omitted).
UniProt P51532, whole entry: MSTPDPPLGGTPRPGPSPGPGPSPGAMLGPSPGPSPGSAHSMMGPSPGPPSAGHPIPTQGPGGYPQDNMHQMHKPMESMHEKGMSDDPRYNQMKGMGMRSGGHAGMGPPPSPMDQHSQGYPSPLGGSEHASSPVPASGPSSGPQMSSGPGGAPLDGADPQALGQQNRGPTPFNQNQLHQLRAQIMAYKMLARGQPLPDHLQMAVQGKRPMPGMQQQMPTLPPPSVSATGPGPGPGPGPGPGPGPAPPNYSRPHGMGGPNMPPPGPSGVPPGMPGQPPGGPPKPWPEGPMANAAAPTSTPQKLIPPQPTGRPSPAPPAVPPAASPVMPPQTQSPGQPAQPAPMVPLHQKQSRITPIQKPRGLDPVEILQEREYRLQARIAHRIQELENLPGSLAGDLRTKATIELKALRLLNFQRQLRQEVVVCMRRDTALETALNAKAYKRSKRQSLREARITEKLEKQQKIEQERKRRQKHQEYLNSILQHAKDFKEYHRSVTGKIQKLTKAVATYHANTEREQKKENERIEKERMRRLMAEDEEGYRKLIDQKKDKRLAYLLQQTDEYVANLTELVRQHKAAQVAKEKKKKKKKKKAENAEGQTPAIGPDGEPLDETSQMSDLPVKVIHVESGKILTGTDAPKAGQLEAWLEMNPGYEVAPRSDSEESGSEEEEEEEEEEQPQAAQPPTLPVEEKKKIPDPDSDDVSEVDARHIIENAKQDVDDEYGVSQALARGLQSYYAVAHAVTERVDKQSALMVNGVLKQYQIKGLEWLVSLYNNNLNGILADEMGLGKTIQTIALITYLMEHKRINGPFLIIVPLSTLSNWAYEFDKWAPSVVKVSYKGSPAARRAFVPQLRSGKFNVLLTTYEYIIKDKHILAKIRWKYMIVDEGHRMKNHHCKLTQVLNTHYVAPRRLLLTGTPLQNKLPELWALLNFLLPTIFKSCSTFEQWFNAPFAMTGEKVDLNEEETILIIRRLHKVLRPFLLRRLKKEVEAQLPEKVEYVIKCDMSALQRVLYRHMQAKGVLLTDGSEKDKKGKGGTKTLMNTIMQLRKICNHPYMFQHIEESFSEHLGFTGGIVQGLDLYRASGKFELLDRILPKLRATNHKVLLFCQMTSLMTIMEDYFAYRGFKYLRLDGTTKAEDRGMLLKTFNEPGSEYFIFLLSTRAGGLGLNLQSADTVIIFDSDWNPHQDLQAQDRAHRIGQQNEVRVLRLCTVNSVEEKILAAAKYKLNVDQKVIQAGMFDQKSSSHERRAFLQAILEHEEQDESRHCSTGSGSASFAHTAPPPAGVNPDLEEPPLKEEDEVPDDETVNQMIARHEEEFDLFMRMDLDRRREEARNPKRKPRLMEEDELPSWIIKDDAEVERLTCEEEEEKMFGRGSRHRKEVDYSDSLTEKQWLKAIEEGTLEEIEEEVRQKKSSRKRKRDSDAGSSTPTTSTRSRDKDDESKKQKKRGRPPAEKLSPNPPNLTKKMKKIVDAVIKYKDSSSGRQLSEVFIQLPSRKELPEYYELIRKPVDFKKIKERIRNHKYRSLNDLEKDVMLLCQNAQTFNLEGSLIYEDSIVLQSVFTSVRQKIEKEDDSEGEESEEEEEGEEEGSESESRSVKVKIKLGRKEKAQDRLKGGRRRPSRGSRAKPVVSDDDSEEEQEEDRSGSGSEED

For this assay, the target named is T1, HiBit-BRG1 fusion protein (Homo sapiens, UniProt P51532).
T1 construct: expressed in transfected cells
As to the kind of experiment: HiBiT-BRG1 cell-based degradation assay (Nano-Glo HiBiT Lytic Detection, 24 h). As to conditions: HeLa, read-out: BRG1 HiBit Degradation Maximum (%). On the procedure: Procedure: A stable HeLa cell line expressing HiBiT-BRM was generated. On day 0, 5000 cells were seeded in 40 μL of media into each well of 384-well cell culture plates. […] Subsequently plates were incubated for 24 h in a standard tissue culture incubator and equilibrated at room temperature for 15 minutes. Nano-Glo HiBiT Lytic Detection System (Promega N3050) reagent was freshly prepared and 20 ul was added to each well. Upon addition of this LgBit-containing reagent, the HiBiT and LgBiT proteins associate to form the luminescent NanoBiT luciferase. The plates were shaken for 10 minutes at room temperature and the bioluminescence read using an EnVision plate reader (PerkinElmer).
For measurement of BRG1 degradation, a stable HeLa cell line expressing HiBit-BRG1 and LgBit was generated. The same protocol as above was then followed.
The degradation % was calculated using the following formula: % degradation=100%−100%×(LumSample−LumLC)/(LumHC−LumLC). DMSO treated cells are employed as High Control (HC) and 2 μM of a known BRM/BRG1 degrader standard treated cells are employed as Low Control (LC).
Turning to `Cc1ncsc1-c1ccc([C@H](C)NC(=O)[C@@H]2C[C@@H](O)CN2C(=O)[C@@H](c2cc(N3CCN(CCN4CC(c5cc6cc(-c7ccccc7O)nnc6[nH]5)C4)CC3)no2)C(C)C)cc1` (racemic) [Compound 273, (2S,4R)-4-hydroxy-1-[(2R)-2-{3-[4-(2-{3-[3-(2-hydroxyphenyl)-7H-pyrrolo[2,3-c]pyridazin-6-yl]azetidin-1-yl}ethyl)piperazin-1-yl]-1,2-oxazol-5-yl}-3-methylbutanoyl]-N-[(1S)-1-[4-(4-methyl-1,3-thiazol-5-yl)phenyl]ethyl]pyrrolidine-2-carboxamide], the Dmax is under 50%.
Then `Cc1ncsc1-c1ccc([C@H](C)NC(=O)[C@@H]2C[C@@H](O)CN2C(=O)[C@@H](c2cc(N3CCN(C(=O)N4CC(c5cc6cc(-c7ccccc7O)nnc6[nH]5)C4)CC3)no2)C(C)C)cc1` (racemic) [Compound 124, (2S,4R)-4-hydroxy-1-[(2R)-2-[3-(4-{3-[3-(2-hydroxyphenyl)-7H-pyrrolo[2,3-c]pyridazin-6-yl]azetidine-1-carbonyl}piperazin-1-yl)-1,2-oxazol-5-yl]-3-methylbutanoyl]-N-[(1S)-1-[4-(4-methyl-1,3-thiazol-5-yl)phenyl]ethyl]pyrrolidine-2-carboxamide], with over 75%.
Then `Cc1ncsc1-c1ccc([C@H](C)NC(=O)[C@@H]2C[C@@H](O)CN2C(=O)[C@@H](c2cc(OCCN3CC(c4c[nH]c5nnc(-c6ccccc6O)cc45)C3)no2)C(C)C)cc1` [Compound 15, (2S,4R)-4-hydroxy-1-((R)-2-(3-(2-(3-(3-(2-hydroxyphenyl)-7H-pyrrolo[2,3-c]pyridazin-5-yl)azetidin-1-yl)ethoxy)isoxazol-5-yl)-3-methylbutanoyl)-N—((S)-1-(4-(4-methylthiazol-5-yl)phenyl)ethyl)pyrrolidine-2-carboxamide formate], with under 50%; and `Cc1ncsc1-c1ccc([C@H](C)NC(=O)[C@@H]2C[C@@H](O)CN2C(=O)[C@@H](c2cc(C3CCN(C(=O)N4CCc5[nH]c6nnc(-c7ccccc7O)cc6c5C4)CC3)no2)C(C)C)cc1` [Compound 105, (2S,4R)-4-hydroxy-1-((R)-2-(3-(1-(3-(2-hydroxyphenyl)-6,7,8,9-tetrahydro-5H-pyrido[3′,4′:4,5]pyrrolo[2,3-c]pyridazine-6-carbonyl)piperidin-4-yl)isoxazol-5-yl)-3-methylbutanoyl)-N—((S)-1-(4-(4-methylthiazol-5-yl)phenyl)ethyl)pyrrolidine-2-carboxamide], with under 50%; and `Cc1ncsc1-c1ccc([C@H](C)NC(=O)[C@@H]2C[C@@H](O)CN2C(=O)[C@@H](c2cc(N3CCN(CCC(=O)N4CC(c5cc6cc(-c7ccccc7O)nnc6[nH]5)C4)CC3)no2)C(C)C)cc1` (racemic) [Compound 268, (2S,4R)-4-hydroxy-1-[(2R)-2-{3-[4-(3-{3-[3-(2-hydroxyphenyl)-7H-pyrrolo[2,3-c]pyridazin-6-yl]azetidin-1-yl}-3-oxopropyl)piperazin-1-yl]-1,2-oxazol-5-yl}-3-methylbutanoyl]-N-[(1S)-1-[4-(4-methyl-1,3-thiazol-5-yl)phenyl]ethyl]pyrrolidine-2-carboxamide], with over 75%.
Then `Cc1ncsc1-c1ccc([C@H](C)NC(=O)[C@@H]2C[C@@H](O)CN2C(=O)[C@@H](c2cc(OCCN3CC(c4cc5cc(-c6ccccc6O)nnc5[nH]4)C3)no2)C(C)C)cc1` [Compound 14, (2S,4R)-4-hydroxy-1-((R)-2-(3-(2-(3-(3-(2-hydroxyphenyl)-7H-pyrrolo[2,3-c]pyridazin-6-yl)azetidin-1-yl)ethoxy)isoxazol-5-yl)-3-methylbutanoyl)-N—((S)-1-(4-(4-methylthiazol-5-yl)phenyl)ethyl)pyrrolidine-2-carboxamide formate], with under 50%.

(Values after patent US20240024488A1, “COMPOUNDS AND USES THEREOF” (Foghorn Therapeutics Inc., priority 2020, published 2024).)
